Experimental data reported in ChEMBL document CHEMBL3232718, “Design, synthesis, and characterization of novel, nonquaternary reactivators of GF-inhibited human acetylcholinesterase” (2014).

Assay: Dissociation constant, pKa of the compound by capillary electrophoresis analysis

SMILES | pKa
O/N=C/c1ccc(OCC2CCN(Cc3ccccc3)CC2)nc1 | 11.2
O/N=C/c1cnc(OCC2CCN(Cc3ccccc3)CC2)nc1 | 10.7
